Test results published in PMC10295546, “Synthesis, Cytotoxicity and Molecular Docking of New Hybrid Compounds by Combination of Curcumin with Oleanolic Acid” (Biomedicines, 2023).

These compounds were tested on MCF7, HeLaWT and HT-29 cancer cells (assay: MTT cell viability assay, range over the three cancer cell lines). Conditions: Homo sapiens, 24 h, read-out: IC50 value (24 h), range over cell lines.
`COc1cc(/C=C/c2cc(/C=C/c3ccc(OC(=O)CCC(=O)OC4CCC5(C)C(CCC6(C)C5CC=C5C7CC(C)(C)CCC7(C(=O)O)CCC56C)C4(C)C)c(OC)c3)on2)ccc1O` (stereo not drawn) [KS5, Curcumin isoxazole mono-oleanoyl hydrogen succinate] showed an IC50 of 20.6 to 94.4 µM. `COc1cc(/C=C/c2cc(/C=C/c3ccc(OC(=O)CCC(=O)OC4CCC5(C)C(CCC6(C)C5CC=C5C7CC(C)(C)CCC7(C(=O)O)CCC56C)C4(C)C)c(OC)c3)[nH]n2)ccc1O` (stereo not drawn) [KS6, Curcumin pyrazole mono-oleanoyl hydrogen succinate] gave an IC50 of 20.6 to 94.4 µM. Compound `COC(=O)C12CCC(C)(C)CC1C1=CCC3C4(C)CCC(OC(=O)CCC(=O)Oc5ccc(/C=C/c6cc(/C=C/c7ccc(O)c(OC)c7)n[nH]6)cc5OC)C(C)(C)C4CCC3(C)C1(C)CC2` (stereo not drawn) [KS8, Curcumin pyrazole mono-oleanoyl hydrogen succinate methyl ester] has an IC50 of 20.6 to 94.4 µM.
